## Apparent affinities of Ab-95 variants for a coronavirus HR2 peptide

Reference: Engelhart et al. 2022, doi:10.1038/s41597-022-01779-4. File: FLAb, binding data.

Target peptide (SARS-CoV-2 spike, HR2 region): PDVDLGDISGINAS

Each scFv is VH, the linker GGGGSGGGGSGGGGS, VL, as in the parent Ab-95, and differs from it in the CDRs of the light chain only.
VH: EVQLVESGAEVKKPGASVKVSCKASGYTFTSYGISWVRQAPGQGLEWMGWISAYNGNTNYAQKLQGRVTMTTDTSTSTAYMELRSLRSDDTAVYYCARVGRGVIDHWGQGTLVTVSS
VL: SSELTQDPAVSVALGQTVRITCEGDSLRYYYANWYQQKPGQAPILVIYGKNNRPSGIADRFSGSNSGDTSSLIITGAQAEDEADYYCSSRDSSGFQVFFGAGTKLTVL

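AAYL52 was designed without a model: most single CDR substitutions and a random sample of double and triple ones. AlphaSeq pools MATa yeast showing the antibodies with MATalpha yeast showing the peptide. Pairs that bind mate more often; barcode pairs of the diploids are counted by sequencing. The ratio of observed to expected reads was calibrated, replicate by replicate, on BCL2-family standards whose Kd was known from biolayer interferometry. Each pool was mated in three replicate cultures.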

The parent's light chain CDRs are EGDSLRYYYAN, GKNNRPS, SSRDSSGFQVF; each variant's own CDRs replace them letter for letter. The read-out is the apparent dissociation constant on a log10 scale (nM): the lower, the stronger. Averages over replicates are reported, and they cover detected replicates only. "nd" marks a missing value. The strain was present, yet no cells mated with the target were sequenced in any replicate, which points to weak or no binding. Empty control strains, which show no peptide, gave a signal in 28% of pairings with library AAYL52; the median was 3.91 and 95% of these signals were weaker than 2.90. No background was subtracted.

| mean log10 Kd (nM) | detected | CDR-L1 | CDR-L2 | CDR-L3 |
|---|---|---|---|---|
| 3.57 | 3/3 | NGDSLRYWYAN | GKNNRPS | WSRDSSGFQVF |
| 2.09 | 3/3 | EGDSLRYYYAN | GKNNRAS | SVRDASGFQVF |
| 2.28 | 3/3 | TGDSLGYYYAN | GKNNRPS | SSRDSSGFQVE |
| 2.46 | 3/3 | EGDSLRYYYAN | GKNNRPS | SSVDSSHFAVF |
| 1.51 | 3/3 | GGDSLRYAYAN | GKNNRPS | SSRDSSGGQVF |
| 2.60 | 3/3 | EGDILRYYQAN | GKNNRPY | SSRDSSGFQVF |
| nd | 0/3 | EGDSLRYYYRN | GKNNRPS | HSRDKSGFQVF |
| 4.50 | 2/3 | EGDSLRYYYAK | GKNNRPS | TSRDSSKFQVF |
| 4.55 | 1/3 | EGDSLLYYYAN | GKNNRPS | SLRDSSGFTVF |
| 3.71 | 3/3 | EGDSLRYYYAN | GKNNRPS | SNRDSSGNQVF |
| 3.26 | 3/3 | EGDSLRYYYAN | GKNNRPS | SSRDFDGDQVF |
| 2.38 | 3/3 | TGDSLRYYYAN | GKNNRPI | SSRDSWGFQVF |
| 1.53 | 3/3 | RGDSLRYRYAN | GCNNRPS | SSRDSSGFQVF |
| 2.69 | 3/3 | EGDSLRYYYAN | GKNNRPH | SSRDSSGVQVF |
| 2.87 | 1/3 | ELFGLRYYYAN | GKNNRPS | SSRDSSGFQVF |
| 3.45 | 2/3 | EGDSLRYYYAN | GANNRPF | SSRDSSGFQVR |
| 1.28 | 3/3 | EGDSLRYSYAN | GKNNRPS | SSRCSSGFCVF |
| 2.93 | 3/3 | EGDSLIYYYAN | GKSNRPS | SSRDSSGFQVF |
| 2.75 | 3/3 | KVDSLRHYYAN | GKNNRPS | SSRDSSGFQVF |
| 1.30 | 3/3 | EGDSLRYGYAN | GKNNRPS | SSRDSKGFQVF |
| 1.40 | 3/3 | EGESLRYEYAN | GKNNAPS | SSRDSSGFQVF |
| 1.52 | 3/3 | EGDSLRYYDAN | GKNNRPS | SSRDSYGFKVF |
| 3.65 | 2/3 | EGDSLEYYYAN | GKYNRPV | SSRDSSGFQVF |
| 4.29 | 3/3 | EGDSLRYMYAN | GKHNPPS | SSRDSSGFQVF |
| 3.23 | 3/3 | EGDSMRYYYQN | GKNNRPS | SSRDWSGFQVF |
| 1.97 | 3/3 | IGDSLRYYGAN | GKCNRPS | SSRDSSGFQVF |
| nd | 0/3 | EGRSIRYYYRN | GKNNRPS | SSRDSSGFQVF |
| 4.33 | 3/3 | EGDMIRYYYAN | GKNNRPS | ASRDSSGFQVF |
| 4.44 | 2/3 | GGDSLRYYYAT | GKNNRPS | SSRDQSGFQVF |
| 4.37 | 1/3 | EGDSLRYYYAN | IKNNRPS | MSRDSSGFQVF |
| 4.17 | 2/3 | EGHSDRYYYAN | GQNNRPS | SSRDSSGFQVF |
| nd | 0/3 | EGDSLRYYYAN | YKNNLPS | SSRDSSGFFVF |
| 4.02 | 1/3 | EGDSWRYYYAN | GKNNRVS | SSRDSSYFQVF |
| 2.92 | 3/3 | KGDSLRYYYAN | GKNNRDS | SSRDSSGFQVF |
| 2.41 | 3/3 | EHDSARYYYAN | GKNNRPS | SSRDSSGFQVS |
| 3.85 | 1/3 | EGDSLRYYYAN | PKNNRPS | ASRDSSYFQVF |
| 3.12 | 3/3 | EGDSLRYYYAN | GKNNRPM | SQRDSSGPQVF |
| 4.24 | 1/3 | EGDSDRYYYQN | GKNNRPS | SSRDSLGFQVF |
| 3.61 | 1/3 | EGDSLRFYYAH | GVNNRPS | SSRDSSGFQVF |
| 3.58 | 1/3 | ENDSLRHYYAN | GKNNRPS | SSRDSSGFQVF |
| 4.90 | 1/3 | CGDSLRYYYAN | GKNNHRS | SSRDSSGFQVF |
| 4.25 | 2/3 | EGDSLRYYYAN | GKNNRPC | SSRDDSGFQVS |
| 3.08 | 2/3 | EGDSLRYYYAN | GFNNRPS | SSRDVSGFQVF |
| 4.18 | 2/3 | EGDSSRYYYAN | GKRNRPS | SKRDSSGFQVF |
| 4.43 | 3/3 | EGDSLLYYYAN | GKKNRPS | SSRDSSGFQVF |
| 4.23 | 1/3 | EGDSLRYYYAN | DKNNRPS | SSRDSIGFQVV |
| 4.20 | 1/3 | EGDSLRYYYAN | LKGNRPS | HSRDSSGFQVF |
| nd | 0/3 | EGDSLRYYYAN | GKNNRKS | SSRDESRFQVF |
| 6.24 | 1/3 | EGDSLRYYYAN | GKNGPPS | SSPDSSGFQVF |
| 3.54 | 1/3 | SGDSLRYYYAN | GKNNRPS | SSRDSHSFQVF |
| 4.82 | 2/3 | EGDSLRYYYAN | GKNNRPS | SSNDSSGFDVF |
| nd | 0/3 | ETDSLDYYFAN | GKNNRPS | SSRDSSGFQVF |
| 2.26 | 3/3 | EGDSLRYYAAR | GKNNRPS | SLRDSSGFQVF |
| 4.24 | 1/3 | AGDWLRYYYAN | GKNNRPS | FSRDSSGFQVF |
| 3.11 | 3/3 | EGDSLRYYYAN | GKTNRPS | SSLDNSGFQVF |
| 3.23 | 3/3 | EYDSLRYVYAN | GKNNRPS | SSRASSGFQVF |
| 3.21 | 3/3 | EGDSLRYSYAN | GKTNRPS | SRRDSSGFQVF |
| 3.82 | 2/3 | EGDSLRYYYAN | GPNNRPS | SSRCSSGVQVF |

3 of these entries, quoted again:

{"CDR-L1": "EGDSLRYYYAN", "CDR-L2": "GKNNRAS", "CDR-L3": "SVRDASGFQVF", "mean log10 Kd (nM)": "2.09", "detected": "3/3"}
{"CDR-L1": "EGDSLRYYYRN", "CDR-L2": "GKNNRPS", "CDR-L3": "HSRDKSGFQVF", "mean log10 Kd (nM)": "nd", "detected": "0/3"}
{"CDR-L1": "TGDSLGYYYAN", "CDR-L2": "GKNNRPS", "CDR-L3": "SSRDSSGFQVE", "mean log10 Kd (nM)": "2.28", "detected": "3/3"}